By UniProt entry, the sequences of proteins in these tests, tags left out.
UniProt Q14145, whole entry: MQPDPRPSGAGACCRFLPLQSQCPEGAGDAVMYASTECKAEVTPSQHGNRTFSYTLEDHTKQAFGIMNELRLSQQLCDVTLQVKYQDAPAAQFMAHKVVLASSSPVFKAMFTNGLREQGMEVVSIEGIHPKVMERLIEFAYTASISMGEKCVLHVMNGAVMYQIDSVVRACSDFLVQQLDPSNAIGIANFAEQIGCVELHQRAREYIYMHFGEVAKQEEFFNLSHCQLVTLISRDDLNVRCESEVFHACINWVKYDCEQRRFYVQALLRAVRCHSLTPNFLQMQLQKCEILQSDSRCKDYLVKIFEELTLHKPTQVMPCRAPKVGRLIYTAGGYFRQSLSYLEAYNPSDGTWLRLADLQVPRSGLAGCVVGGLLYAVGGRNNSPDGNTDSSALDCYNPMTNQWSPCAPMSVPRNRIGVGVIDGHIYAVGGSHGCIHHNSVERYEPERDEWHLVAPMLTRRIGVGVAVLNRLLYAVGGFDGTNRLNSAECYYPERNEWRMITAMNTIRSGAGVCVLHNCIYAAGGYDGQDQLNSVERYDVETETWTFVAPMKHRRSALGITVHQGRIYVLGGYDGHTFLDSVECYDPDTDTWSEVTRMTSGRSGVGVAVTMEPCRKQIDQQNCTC

In patent US20250093263A1, “FRET-BASED ASSAYS” (The General Hospital Corporation, priority 2021, published 2025):

Key:
Keap1 (His/GST) [1] = target: T1, Keap1 (His/GST) (Homo sapiens, UniProt Q14145); experiment: Keap1 TR-FRET Assay 3 (CDDO-FITC/Tb-Anti-6xHis); format: binding
[2] = target: T2, WT Keap1 (tag-free, full-length) (Homo sapiens, UniProt Q14145); experiment: biochemical
[3] = target: T2, WT Keap1 (tag-free, full-length); experiment: biochemical; remark: listed apart in the source
Keap1 (His/GST) [4] = target: T1, Keap1 (His/GST); experiment: biochemical

SMILES	IC50 (Keap1 (His/GST) [1])	IC50 [2]	Kd [2]	IC50 [3]	Kd [3]	IC50 (Keap1 (His/GST) [4])	Kd (Keap1 (His/GST) [1]; 6×His/GST Keap1, CoraFluor-labeled anti-6×His antibody, read-out: Kd,app of CDDO-FITC)
CC1=C(O)C(=O)C=C2C1=CC=C1[C@@]2(C)CC[C@@]2(C)[C@@H]3C[C@](C)(C(=O)O)CC[C@]3(C)CC[C@]12C [CS, celastrol]	13 µM	30.9 µM	11.2 µM	21.8 µM	11.4 µM	16.8 µM	–
CC1(C)CC[C@]2(C(=O)NCCCOCCOCCOCCCNC(=S)Nc3ccc(-c4c5ccc(=O)cc-5oc5cc(O)ccc45)c(C(=O)O)c3)CC[C@]3(C)[C@H](C(=O)C=C4[C@@]5(C)C=C(C#N)C(=O)C(C)(C)[C@@H]5CC[C@]43C)[C@@H]2C1 [CDDO-FITC, 5-(3-(1-((4aS,6aR,6bS,8aR,12aS,14aR,14bS)-11-cyano-2,2,6a,6b,9,9,12a-heptamethyl-10,14-dioxo-1,3,4,5,6,6a,6b,7,8,8a,9,10,12a,14,14a,14b-hexadecahydropicen-4a(2H)-yl)-1-oxo-6,9,12-trioxa-2-azapentadecan-15-yl)thioureido)-2-(6-hydroxy-3-oxo-3H-xanthen-9-yl)benzoic acid]	–	–	–	–	–	–	0.0068 ± 0.0011 µM

Where two headings read alike, the source gives them in different places.
